Permeability data for macrocyclic peptides

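Conditions beyond the assay type are not listed; see the original paper. Other peptides of the study may be missing here. Peptides that the database sets to -10, its floor, are left out.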

PAMPA is the parallel artificial membrane permeability assay, which has no cells and reads passive diffusion. Caco-2: transport across a human colon carcinoma cell monolayer. P is given in units of 10^-6 cm/s (from log10 values with two decimals); larger means faster passage. Cells with "–" have no entry in this list.

SMILES,PAMPA (10^-6 cm/s),Caco-2 (10^-6 cm/s)
CCCC[C@@H]1NC(=O)[C@H](CC(C)C)N(C)C(=O)CN(Cc2ccccc2)C(=O)[C@H](Cc2ccccc2)NC(=O)CN(CC(C)C)C(=O)[C@H]2CCCN2C1=O,0.87,–
CCCC[C@@H]1NC(=O)[C@H](CC(C)C)N(C)C(=O)CN(CC2CCOCC2)C(=O)[C@H](C)NC(=O)CN(CCCCc2ccccc2)C(=O)[C@H]2CCCN2C1=O,5,–
CCCC[C@@H]1NC(=O)[C@H](CC(C)C)N(C)C(=O)CN(CCCc2cnn(C)c2)C(=O)[C@H](Cc2ccccc2)NC(=O)CN(Cc2cc(CC(C)C)on2)C(=O)[C@H]2CCCN2C1=O,2.3,–
CCCC[C@@H]1NC(=O)[C@H](CC(C)C)N(C)C(=O)CN(CC2CCOCC2)C(=O)[C@H](CC(C)C)NC(=O)CN(Cc2cc(CC(C)C)on2)C(=O)[C@H]2CCCN2C1=O,8.9,–
CCCC[C@@H]1NC(=O)[C@H](CC(C)C)N(C)C(=O)CN(Cc2ccccc2)C(=O)[C@H](Cc2ccc3ccccc3c2)NC(=O)CN(Cc2ccccc2Cn2cccn2)C(=O)[C@H]2CCCN2C1=O,0.046,–
CCCC[C@@H]1NC(=O)[C@H](CC(C)C)N(C)C(=O)CN(CCOC)C(=O)[C@H](Cc2ccc3ccccc3c2)NC(=O)CN(CC(C)C)C(=O)[C@H]2CCCN2C1=O,2.2,–
CCCC[C@@H]1NC(=O)[C@H](CC(C)C)N(C)C(=O)CN(CCOC)C(=O)[C@H](Cc2ccc3ccccc3c2)NC(=O)CN(Cc2ccc3c(c2)OCO3)C(=O)[C@H]2CCCN2C1=O,0.074,–
CCCC[C@@H]1NC(=O)[C@H](CC(C)C)N(C)C(=O)CN(CCOc2ccccc2)C(=O)[C@H](Cc2ccccc2)NC(=O)CN(CC(C)C)C(=O)[C@H]2CCCN2C1=O,0.47,–
CCCC[C@@H]1NC(=O)[C@H](CC(C)C)N(C)C(=O)CN(CC2CCOCC2)C(=O)[C@H](Cc2ccccc2)NC(=O)CN(CCN2CCOCC2)C(=O)[C@H]2CCCN2C1=O,0.35,–
CCCCCN1CC(=O)N(C)[C@@H](CC(C)C)C(=O)N[C@@H](CCCC)C(=O)N2CCC[C@@H]2C(=O)N(Cc2ccccc2Cn2cccn2)CC(=O)N[C@@H](Cc2ccccc2)C1=O,0.13,–
CCCC[C@@H]1NC(=O)[C@H](CC(C)C)N(C)C(=O)CN(CCc2cccnc2)C(=O)[C@H](Cc2ccccc2)NC(=O)CN(Cc2ccc3c(c2)OCO3)C(=O)[C@H]2CCCN2C1=O,1.6,–
CCCC[C@@H]1NC(=O)[C@H](CC(C)C)N(C)C(=O)CN(CC2CCCCC2)C(=O)[C@H](Cc2ccc3ccccc3c2)NC(=O)CN(Cc2ccccc2Cn2cccn2)C(=O)[C@H]2CCCN2C1=O,0.015,–
CCCC[C@@H]1NC(=O)[C@H](CC(C)C)N(C)C(=O)CN(Cc2ccccc2)C(=O)[C@H](CC(C)C)NC(=O)CN(Cc2cc(CC(C)C)on2)C(=O)[C@H]2CCCN2C1=O,0.32,–
CCCC[C@@H]1NC(=O)[C@H](CC(C)C)N(C)C(=O)CN(CC2CCCCC2)C(=O)[C@H](CC(C)C)NC(=O)CN(CCCCc2ccccc2)C(=O)[C@H]2CCCN2C1=O,0.0071,–
CCCC[C@@H]1NC(=O)[C@H](CC(C)C)N(C)C(=O)CN(CCc2cccnc2)C(=O)[C@H](CC(C)C)NC(=O)CN(Cc2ccccc2Cn2cccn2)C(=O)[C@H]2CCCN2C1=O,2.6,0.95
CCCC[C@@H]1NC(=O)[C@H](CC(C)C)N(C)C(=O)CN(CCCN2CCCC2=O)C(=O)[C@H](Cc2ccc3ccccc3c2)NC(=O)CN(Cc2cc(CC(C)C)on2)C(=O)[C@H]2CCCN2C1=O,0.44,–
CCCC[C@@H]1NC(=O)[C@H](CC(C)C)N(C)C(=O)CN(CCOc2ccccc2)C(=O)[C@H](CC(C)C)NC(=O)CN(Cc2ccccc2Cn2cccn2)C(=O)[C@H]2CCCN2C1=O,0.59,–
CCCC[C@@H]1NC(=O)[C@H](CC(C)C)N(C)C(=O)CN(CC2CCCCC2)C(=O)[C@H](Cc2ccc3ccccc3c2)NC(=O)CN(CCN2CCOCC2)C(=O)[C@H]2CCCN2C1=O,0.38,–
CCCC[C@@H]1NC(=O)[C@H](CC(C)C)N(C)C(=O)CN(CCOc2ccccc2)C(=O)[C@H](C)NC(=O)CN(CCN2CCOCC2)C(=O)[C@H]2CCCN2C1=O,0.62,–
CCCC[C@@H]1NC(=O)[C@H](CC(C)C)N(C)C(=O)CN(CCCN2CCCC2=O)C(=O)[C@H](Cc2ccc3ccccc3c2)NC(=O)CN(Cc2ccc(Cl)cc2)C(=O)[C@H]2CCCN2C1=O,0.078,–
CCCCCN1CC(=O)N(C)[C@@H](CC(C)C)C(=O)N[C@@H](CCCC)C(=O)N2CCC[C@@H]2C(=O)N(Cc2cc(CC(C)C)on2)CC(=O)N[C@@H](Cc2ccccc2)C1=O,0.1,–
CCCCCN1CC(=O)N(C)[C@@H](CC(C)C)C(=O)N[C@@H](CCCC)C(=O)N2CCC[C@@H]2C(=O)N(CCCOC(C)C)CC(=O)N[C@@H](CC(C)C)C1=O,5.8,–
CCCCCN1CC(=O)N(C)[C@@H](CC(C)C)C(=O)N[C@@H](CCCC)C(=O)N2CCC[C@@H]2C(=O)N(Cc2ccc(Cl)cc2)CC(=O)N[C@@H](CC(C)C)C1=O,0.041,–
CCCC[C@@H]1NC(=O)[C@H](CC(C)C)N(C)C(=O)CN(CCc2cccnc2)C(=O)[C@H](C)NC(=O)CN(Cc2ccc3c(c2)OCO3)C(=O)[C@H]2CCCN2C1=O,0.54,–

A selection of 3 entries from above:

SMILES,PAMPA (10^-6 cm/s),Caco-2 (10^-6 cm/s)
CCCCCN1CC(=O)N(C)[C@@H](CC(C)C)C(=O)N[C@@H](CCCC)C(=O)N2CCC[C@@H]2C(=O)N(Cc2ccc(Cl)cc2)CC(=O)N[C@@H](CC(C)C)C1=O,0.041,–
CCCC[C@@H]1NC(=O)[C@H](CC(C)C)N(C)C(=O)CN(CCOc2ccccc2)C(=O)[C@H](C)NC(=O)CN(CCN2CCOCC2)C(=O)[C@H]2CCCN2C1=O,0.62,–
CCCC[C@@H]1NC(=O)[C@H](CC(C)C)N(C)C(=O)CN(Cc2ccccc2)C(=O)[C@H](Cc2ccccc2)NC(=O)CN(CC(C)C)C(=O)[C@H]2CCCN2C1=O,0.87,–

Values of Furukawa et al. 2016, doi:10.1021/acs.jmedchem.6b01246, as listed in CycPeptMPDB.